Assay results as given in US8981087B2, “Benzo [E] [1,3] oxazin-4-one derivatives as phosphoinositide 3-kinase inhibitors” (Karus Therapeutics Limited, priority 2009, dated 2015).

Amino acid sequences for entries named in this document (tags omitted). A change or cut given only in a name is not applied to a line headed by its entry.
UniProt P42338: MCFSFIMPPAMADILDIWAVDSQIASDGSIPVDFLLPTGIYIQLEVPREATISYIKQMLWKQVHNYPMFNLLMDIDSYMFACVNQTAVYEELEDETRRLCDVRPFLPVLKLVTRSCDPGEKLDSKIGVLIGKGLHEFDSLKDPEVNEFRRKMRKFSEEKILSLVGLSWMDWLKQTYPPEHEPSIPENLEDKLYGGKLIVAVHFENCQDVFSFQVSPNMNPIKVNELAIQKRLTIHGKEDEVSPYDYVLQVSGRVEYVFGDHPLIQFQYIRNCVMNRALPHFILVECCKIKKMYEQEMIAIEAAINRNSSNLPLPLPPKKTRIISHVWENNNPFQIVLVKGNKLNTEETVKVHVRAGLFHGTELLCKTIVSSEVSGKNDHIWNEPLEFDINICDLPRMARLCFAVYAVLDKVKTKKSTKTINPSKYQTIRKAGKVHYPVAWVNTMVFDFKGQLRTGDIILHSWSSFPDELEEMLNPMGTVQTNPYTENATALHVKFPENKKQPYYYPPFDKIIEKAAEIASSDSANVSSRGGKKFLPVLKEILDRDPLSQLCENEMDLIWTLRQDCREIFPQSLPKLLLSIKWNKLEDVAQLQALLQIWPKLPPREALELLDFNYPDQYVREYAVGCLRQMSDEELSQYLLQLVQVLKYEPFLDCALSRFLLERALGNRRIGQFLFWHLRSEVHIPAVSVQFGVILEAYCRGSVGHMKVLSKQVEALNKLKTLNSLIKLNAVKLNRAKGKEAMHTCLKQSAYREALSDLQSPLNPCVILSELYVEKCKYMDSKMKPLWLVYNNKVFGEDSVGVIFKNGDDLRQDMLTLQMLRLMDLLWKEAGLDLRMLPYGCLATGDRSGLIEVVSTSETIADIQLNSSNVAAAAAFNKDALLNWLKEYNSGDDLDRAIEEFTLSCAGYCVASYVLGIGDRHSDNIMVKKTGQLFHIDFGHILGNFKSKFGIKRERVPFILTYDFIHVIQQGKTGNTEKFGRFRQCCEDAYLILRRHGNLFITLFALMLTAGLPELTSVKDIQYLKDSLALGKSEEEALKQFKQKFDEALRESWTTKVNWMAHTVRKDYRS
UniProt P48736: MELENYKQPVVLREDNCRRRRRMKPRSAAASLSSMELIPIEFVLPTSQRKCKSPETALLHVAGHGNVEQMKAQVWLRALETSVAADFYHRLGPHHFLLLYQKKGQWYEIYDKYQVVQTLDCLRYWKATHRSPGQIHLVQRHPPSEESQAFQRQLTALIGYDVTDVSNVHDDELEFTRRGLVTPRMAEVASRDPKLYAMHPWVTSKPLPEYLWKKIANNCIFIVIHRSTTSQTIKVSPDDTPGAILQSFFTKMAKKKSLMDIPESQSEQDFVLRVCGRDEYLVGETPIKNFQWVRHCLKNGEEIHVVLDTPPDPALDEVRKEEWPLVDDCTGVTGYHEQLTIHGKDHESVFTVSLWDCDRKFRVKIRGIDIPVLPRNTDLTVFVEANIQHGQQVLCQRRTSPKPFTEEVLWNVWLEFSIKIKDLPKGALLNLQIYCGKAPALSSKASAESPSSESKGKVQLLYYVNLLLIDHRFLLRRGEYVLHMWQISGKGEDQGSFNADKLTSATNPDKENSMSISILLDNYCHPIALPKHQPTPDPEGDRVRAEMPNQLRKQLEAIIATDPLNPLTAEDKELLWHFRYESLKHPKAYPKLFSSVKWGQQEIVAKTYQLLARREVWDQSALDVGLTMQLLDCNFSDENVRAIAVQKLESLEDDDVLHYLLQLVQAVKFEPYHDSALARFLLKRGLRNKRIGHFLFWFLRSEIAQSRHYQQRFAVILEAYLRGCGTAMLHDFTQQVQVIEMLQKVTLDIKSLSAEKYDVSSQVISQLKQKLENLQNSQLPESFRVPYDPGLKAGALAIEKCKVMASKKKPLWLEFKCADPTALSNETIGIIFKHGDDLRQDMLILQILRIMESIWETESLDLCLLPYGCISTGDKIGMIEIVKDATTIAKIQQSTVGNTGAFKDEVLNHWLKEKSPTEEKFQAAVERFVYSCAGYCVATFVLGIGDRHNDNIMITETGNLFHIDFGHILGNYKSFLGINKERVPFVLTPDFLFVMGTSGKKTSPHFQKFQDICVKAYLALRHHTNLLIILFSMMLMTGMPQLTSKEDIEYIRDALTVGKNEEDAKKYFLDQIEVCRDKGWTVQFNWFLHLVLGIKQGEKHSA

Legend:
PI3K-p110β = PI3K-p110β (Homo sapiens, UniProt P42338); assay: Biochemical PI3K-p110β inhibition; details: Class IA enzyme
PI3K-p110γ = PI3K-p110γ (Homo sapiens, UniProt P48736); assay: Biochemical PI3K-p110γ inhibition; details: Class IB enzyme

IC50 (PI3K-p110β): 1.7 µM
IC50 (PI3K-p110γ): 4.11 µM
Compound: O=c1cc(N2CCOCC2)oc2c(-c3ccccc3)cccc12 [LY294002, reference compound]
